{"source": "patent US20090304803A1", "about": "“Compositions and methods relating to target-specific photodynamic therapy” (The General Hospital Corporation, priority 2005, published 2009)", "system": "ovarian cancer cells", "experiment": "PCNA staining of tumor samples after EGFR-targeted PDT", "assay_type": "in vivo, mice", "conditions": "combination with photodynamic therapy, pelvis and mesentery, seventy-two hours after second PDT treatment", "method": "FIGS. 9A1-9B2 are photomicrographs showing the PCNA staining pattern of tumor samples from mice injected with ovarian cancer cells.\nOrgans from OVCA animal models are analyzed histopathologically using Proliferating Cell Nuclear Antigen (PCNA) staining.", "data": [{"substance": "C225: agent combined with photodynamic therapy for EGFR-targeted PDT", "values": [{"measurement": "cell proliferation (PCNA staining)", "value": "cell proliferation is reduced"}]}]}
